Results published in patent publication US9303023B2, “Pyrazole and imidazole derivatives useful as orexin antagonists” (ACTELION PHARMACEUTICALS LTD., priority 2011, dated 2016).

The chains behind the UniProt entries cited, without tags or fusion partners.
UniProt O43614, whole entry: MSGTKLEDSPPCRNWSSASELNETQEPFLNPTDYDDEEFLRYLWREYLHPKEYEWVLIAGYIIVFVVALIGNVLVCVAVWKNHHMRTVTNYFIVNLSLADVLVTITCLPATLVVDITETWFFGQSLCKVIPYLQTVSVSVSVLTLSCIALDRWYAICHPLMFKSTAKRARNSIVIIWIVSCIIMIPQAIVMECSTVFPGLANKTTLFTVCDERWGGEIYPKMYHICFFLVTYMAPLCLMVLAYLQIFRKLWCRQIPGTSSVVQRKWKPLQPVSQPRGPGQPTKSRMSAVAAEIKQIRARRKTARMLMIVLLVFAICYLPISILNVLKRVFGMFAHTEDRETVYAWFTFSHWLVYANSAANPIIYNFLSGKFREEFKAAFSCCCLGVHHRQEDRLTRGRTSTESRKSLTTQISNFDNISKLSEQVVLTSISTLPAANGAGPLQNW

target: human orexin-2 receptor (Homo sapiens (Human), UniProt O43614); assay: In vitro intracellular calcium measurements (FLIPR), antagonism of orexin-A response, OX2; type: cell-based; details: CHO cells expressing human orexin-2 receptor; 3 nM orexin-A; compound incubation time 120 min

Row | Structure (SMILES) | IC50 [nM]
1 | Cc1cccc(-c2ocnc2C(=O)Nc2cnn(CCNc3nc4cc(Cl)ccc4o3)c2)c1 [Example 112] | 5070
2 | Cc1cnc(NCCn2cc(NC(=O)c3ncoc3-c3cccc(C)c3)cn2)nc1 [Example 114] | 2610
3 | Cc1cccc(-c2scnc2C(=O)Nc2cnn(CCNc3nc4ccccc4o3)c2)c1 [Example 116] | 237
4 | Cc1cccc(-c2scnc2C(=O)Nc2cnn(CCNc3cnc4ccccc4n3)c2)c1 [Example 117] | 129
5 | COc1nc(NCCn2cc(NC(=O)c3ncoc3-c3cccc(C)c3)cn2)nc(OC)c1C [Example 124] | 180
6 | COc1cc(OC)nc(N[C@H](C)Cn2cc(NC(=O)c3ncoc3-c3cccc(C)c3)cn2)n1 [Example 125] | 354
7 | COc1cc(OC)nc(N[C@@H](C)Cn2cc(NC(=O)c3ncoc3-c3cccc(C)c3)cn2)n1 [Example 126] | 270
8 | Cc1cccc(-c2ocnc2C(=O)Nc2cnn(CCNc3ncc(Br)cn3)c2)c1 [Example 128] | 1160
9 | COc1cc(NCCn2cc(NC(=O)c3ncoc3-c3cccc(C)c3)cn2)nc(OC)n1 [Example 129] | 30
10 | COc1cc(OC)nc(NCCCn2cc(NC(=O)c3ncoc3-c3cccc(C)c3)cn2)n1 [Example 130] | 57
11 | COc1ccnc(NCCCn2cc(NC(=O)c3ncoc3-c3cccc(C)c3)cn2)n1 [Example 131] | 43
12 | COc1cc(OC)nc(OCCn2nc(C)c(NC(=O)c3ncoc3-c3cccc(C)c3)c2C)n1 [Example 137] | 1020
13 | Cc1cccc(-c2ocnc2C(=O)Nc2c(C)nn(CCOc3nc4ccccc4o3)c2C)c1 [Example 138] | 966

Other lines, results leading:

Row | IC50 [nM] | Structure (SMILES)
14 | 230 | COc1cc2ccn(CCn3cc(NC(=O)c4ncoc4-c4cccc(C)c4)cn3)c2cn1 [Example 93, 5-m-Tolyl-oxazole-4-carboxylic acid {1-[2-(5-methoxy-pyrrolo[2,3-c]pyridin-1-yl)-ethyl]-1H-pyrazol-4-yl}-amide]
15 | 183 | Cc1cccc(-c2ocnc2C(=O)Nc2c(C)nn(CCn3ccc4ccccc43)c2C)c1 [Example 96, 5-m-Tolyl-oxazole-4-carboxylic acid [1-(2-indol-1-yl-ethyl)-3,5-dimethyl-1H-pyrazol-4-yl]-amide]
16 | 457 | Cc1cccc(-c2ocnc2C(=O)Nc2c(C)nn(CCn3cnc4ccccc43)c2C)c1 [Example 97, 5-m-Tolyl-oxazole-4-carboxylic acid [1-(2-benzoimidazol-1-yl-ethyl)-3,5-dimethyl-1H-pyrazol-4-yl]-amide]
17 | 765 | COc1cc2ccn(CCn3nc(C)c(NC(=O)c4ncoc4-c4cccc(C)c4)c3C)c2cn1 [Example 98, 5-m-Tolyl-oxazole-4-carboxylic acid {1-[2-(5-methoxy-pyrrolo[2,3-c]pyridin-1-yl)-ethyl]-3,5-dimethyl-1H-pyrazol-4-yl}-amide]
18 | 207 | COc1cc2c(ccn2CCn2nc(C)c(NC(=O)c3ncoc3-c3cccc(C)c3)c2C)cn1 [Example 99, 5-m-Tolyl-oxazole-4-carboxylic acid {1-[2-(6-methoxy-pyrrolo[3,2-c]pyridin-1-yl)-ethyl]-3,5-dimethyl-1H-pyrazol-4-yl}-amide]
19 | 472 | COc1cc2ccn(CCn3nc(C)c(NC(=O)c4ncoc4-c4cccc(C)c4)c3C)c2cc1OC [Example 100, 5-m-Tolyl-oxazole-4-carboxylic acid {1-[2-(5,6-dimethoxy-indol-1-yl)-ethyl]-3,5-dimethyl-1H-pyrazol-4-yl}-amide]
20 | 63 | COc1cc2ncn(CCn3cc(NC(=O)c4ncoc4-c4cccc(C)c4)cn3)c2cc1OC [Example 102, 5-m-Tolyl-oxazole-4-carboxylic acid {1-[2-(5,6-dimethoxy-benzoimidazol-1-yl)-ethyl]-1H-pyrazol-4-yl}-amide]
21 | 297 | Cc1cccc(-c2ocnc2C(=O)Nc2cnn(CCn3ccc4ncccc43)c2)c1 [Example 103, 5-m-Tolyl-oxazole-4-carboxylic acid [1-(2-pyrrolo[3,2-b]pyridin-1-yl-ethyl)-1H-pyrazol-4-yl]-amide]
22 | 81 | Cc1cccc(-c2ocnc2C(=O)Nc2cnn(CCn3ccc4cc(Cl)c(Cl)cc43)c2)c1 [Example 106, 5-m-Tolyl-oxazole-4-carboxylic acid {1-[2-(5,6-dichloro-indol-1-yl)-ethyl]-1H-pyrazol-4-yl}-amide]
23 | 507 | Cc1cccc(-c2ocnc2C(=O)Nc2cnn(CCn3ccc4cc(Cl)ccc43)c2)c1 [Example 107, 5-m-Tolyl-oxazole-4-carboxylic acid {1-[2-(5-chloro-indol-1-yl)-ethyl]-1H-pyrazol-4-yl}-amide]
24 | 40 | COc1cc2c(ccn2CCn2cc(NC(=O)c3ncoc3-c3cccc(C)c3)cn2)cc1Cl [Example 108, 5-m-Tolyl-oxazole-4-carboxylic acid {1-[2-(5-chloro-6-methoxy-indol-1-yl)-ethyl]-1H-pyrazol-4-yl}-amide]
25 | 864 | Cc1cccc(-c2ocnc2C(=O)Nc2cnn(CCn3ccc(-c4ccccc4)c3)c2)c1 [Example 109, 5-m-Tolyl-oxazole-4-carboxylic acid {1-[2-(3-phenyl-pyrrol-1-yl)-ethyl]-1H-pyrazol-4-yl}-amide]
26 | 909 | Cc1cccc(-c2ocnc2C(=O)Nc2cnn(CCNc3nc4ccccc4n3C)c2)c1 [Example 140, N-(1-(2-((1-methyl-1H-benzo[d]imidazol-2-yl)amino)ethyl)-1H-pyrazol-4-yl)-5-(m-tolyl)oxazole-4-carboxamide]
27 | 47 | COc1ccc2ccn(CCCn3cc(NC(=O)c4ncoc4-c4cccc(C)c4)cn3)c2c1 [Example 142, N-(1-(3-(6-methoxy-1H-indol-1-yl)propyl)-1H-pyrazol-4-yl)-5-(m-tolyl)oxazole-4-carboxamide]
28 | 891 | COc1ccc2c(ccn2CCCn2cc(NC(=O)c3ncoc3-c3cccc(C)c3)cn2)c1 [Example 143, N-(1-(3-(5-methoxy-1H-indol-1-yl)propyl)-1H-pyrazol-4-yl)-5-(m-tolyl)oxazole-4-carboxamide]

same assay, conditions: CHO cells expressing human orexin-2 receptor; 3 nM orexin-A; compound incubation time of 10 min (#)

Row | Structure (SMILES) | IC50 [nM]
29 | Cc1ccc(OCCn2cc(NC(=O)c3ncoc3-c3cccc(C)c3)cn2)nc1 [Example 81, 5-m-Tolyl-oxazole-4-carboxylic acid {1-[2-(5-methyl-pyridin-2-yloxy)-ethyl]-1H-pyrazol-4-yl)-amide] | 1850
30 | Cc1cccc(-c2ocnc2C(=O)Nc2cnn(CCOc3cccc(F)c3)c2)c1 [Example 82, 5-m-Tolyl-oxazole-4-carboxylic acid {1-[2-(3-fluoro-phenoxy)-ethyl]-1H-pyrazol-4-yl)-amide] | 931
31 | Cc1cccc(-c2ocnc2C(=O)Nc2cnn(CCOc3ccc(F)cc3)c2)c1 [Example 84, 5-m-Tolyl-oxazole-4-carboxylic acid {1-[2-(4-fluoro-phenoxy)-ethyl]-1H-pyrazol-4-yl)-amide] | 973
32 | Cc1cccc(-c2ocnc2C(=O)Nc2cnn(CCn3ccc4cccc(C)c43)c2)c1 [Example 85, 5-m-Tolyl-oxazole-4-carboxylic acid {1-[2-(7-methyl-indol-111)-ethyl]-1H-pyrazol-4-yl}-amide] | 376
33 | Cc1cccc(-c2ocnc2C(=O)Nc2cnn(CCOc3cccc(C)n3)c2)c1 [Example 87, 5-m-Tolyl-oxazole-4-carboxylic acid {1-[2-(6-methyl-pyridin-2-yloxy)-ethyl]-1H-pyrazol-4-yl)-amide] | 794
34 | Cc1cccc(-c2ocnc2C(=O)Nc2cnn(CCOc3cc(C)ccn3)c2)c1 [Example 90, 5-m-Tolyl-oxazole-4-carboxylic acid {1-[2-(4-methyl-pyridin-2-yloxy)-ethyl]-1H-pyrazol-4-yl)-amide] | 2020
35 | Cc1cccc(-c2ocnc2C(=O)Nc2cnn(CCn3ccc4ccc(Cl)nc43)c2)c1 [Example 91, 5-m-Tolyl-oxazole-4-carboxylic acid {1-[2-(6-chloro-pyrrolo[2,3-b]pyridin-1-yl)-ethyl]-1H-pyrazol-4-yl}-amide] | 108
36 | COc1cc(OC)c2ccn(CCn3cc(NC(=O)c4ncoc4-c4cccc(C)c4)cn3)c2n1 [Example 92, 5-m-Tolyl-oxazole-4-carboxylic acid {1-[2-(4,6-dimethoxy-pyrrolo[2,3-b]pyridin-1-yl)-ethyl]-1H-pyrazol-4-yl}-amide] | 65
37 | COc1ncnc2c1ncn2CCn1cc(NC(=O)c2ncoc2-c2cccc(C)c2)cn1 [Example 94, 5-m-Tolyl-oxazole-4-carboxylic acid {1-[2-(6-methoxy-purin-9-yl)-ethyl]-1H-pyrazol-4-yl)-amide] | 1080
38 | COc1ncnc2ncn(CCn3cc(NC(=O)c4ncoc4-c4cccc(C)c4)cn3)c12 [Example 95, 5-m-Tolyl-oxazole-4-carboxylic acid {1-[2-(6-methoxy-purin-7-yl)-ethyl]-1H-pyrazol-4-yl)-amide] | 492
39 | Cc1cccc(-c2ocnc2C(=O)Nc2cnn(CCNc3ncc4ccccc4n3)c2)c1 [Example 111] | 133
40 | Cc1cccc(-c2ocnc2C(=O)Nc2cnn(CCNc3nc4ccccc4o3)c2)c1 [Example 113] | 235
41 | Cc1cccc(-c2ocnc2C(=O)Nc2cnn(CCNc3cnc4ccccc4n3)c2)c1 [Example 115] | 286
42 | Cc1cnc(NCCn2cc(NC(=O)c3ncsc3-c3cccc(C)c3)cn2)nc1 [Example 118] | 959
43 | Cc1cccc(-c2ocnc2C(=O)Nc2cnn(CCNc3ncccn3)c2)c1 [Example 119] | 1160
44 | COc1ccnc(NCCn2cc(NC(=O)c3ncoc3-c3cccc(C)c3)cn2)n1 [Example 120] | 78
45 | Cc1cccc(-c2ocnc2C(=O)Nc2cn(CCNc3ncc4ccccc4n3)cn2)c1 [Example 121] | 328
46 | Cc1cccc(-c2ocnc2C(=O)Nc2cn(CCNc3nc4ccccc4o3)cn2)c1 [Example 122] | 2780
47 | Cc1cccc(-c2ocnc2C(=O)Nc2cnn(CCNc3nc(C)cc(C)n3)c2)c1 [Example 123] | 262
48 | Cc1cnc(OCCn2cc(NC(=O)c3ncoc3-c3cccc(C)c3)cn2)nc1 [Example 134] | 869
49 | CCN(CCn1cc(NC(=O)c2ncoc2-c2cccc(C)c2)cn1)c1nc(OC)cc(OC)n1 [Example 139, N-(1-(2-((4,6-dimethoxypyrimidin-2-yl)(ethyl)amino)ethyl)-1H-pyrazol-4-yl)-5-(m-tolyl)oxazole-4-carboxamide] | 631
